Results on five molecules are retold here after patent US20240342117A1, “Inhalable Epinephrine Formulation” (De Motu Cordis Pty Ltd, priority 2022, published 2024).

Test in data set [1]: not given
The source holds these as a separate data set.

Where two headings read alike, the source gives them in different places.

`CNC[C@H](O)c1ccc(O)c(O)c1` [160916M2, Epinephrine bitartrate]: the Dv50 turned out to be 1.77 μm (Sample: Drum 1 bottom), 1.83 μm (Sample: Drum 1 top), 1.79 μm (Sample: Final Sample) and 1.83 μm (Sample: Trial 1). Also, the Dv90 by setting is: (Sample: Drum 1 bottom) 3.65 μm; (Sample: Drum 1 top) 3.71 μm; (Sample: Final Sample) 3.65 μm; (Sample: Trial 1) 3.76 μm. For the same molecule, the “Volume below 5 μm” value by setting is: (Sample: Drum 1 bottom) 98.37%; (Sample: Drum 1 top) 98.27%; (Sample: Final Sample) 98.42%; (Sample: Trial 1) 97.77%.

As to `CNC[C@H](O)c1ccc(O)c(O)c1` [E80-18002, Epinephrine bitartrate], for the setting “Sample: Unmicronised”, the Dv50 is on record as 37.50 μm, the Dv90 was 193.89 μm and the “Volume below 5 μm” value was 8.18%.

Turning to `CNC[C@H](O)c1ccc(O)c(O)c1` [E80-18002M1, Epinephrine bitartrate], under “Sample: Drum 1”, the Dv50 came out at 1.65 μm, the Dv90 is listed as 3.55 μm and the “Volume below 5 μm” value amounted to 98.39%. Moreover, under “Sample: Trial 1”, the Dv50 came out at 1.62 μm, the Dv90 is 3.23 μm and the “Volume below 5 μm” value was determined as 99.52%.

Take `CNC[C@H](O)c1ccc(O)c(O)c1` [E80-18002M2, Epinephrine bitartrate]: where the note is “Sample: Drum 1”, the Dv50 was 1.52 μm, the Dv90 amounted to 3.25 μm and the “Volume below 5 μm” value is 99.20%. For the setting “Sample: Trial 1”, the Dv50 is 1.57 μm, the Dv90 came to 3.38 μm and the “Volume below 5 μm” value was determined as 98.91%.

In the case of `CNC[C@H](O)c1ccc(O)c(O)c1` [micronized epinephrine bitartrate, epinephrine bitartrate], in data set [1] (4 weeks (2-8° C.)), the Dv10 is reported as 3.49 μm, the Dv50 was determined as 248 μm, the Dv90 worked out at 847 μm and the “Volume below 10 μm” value was found to be 22.62%. In data set [1] (4 weeks (40° C./75% RH)), the Dv10 is given as 2.40 μm, the Dv50 is on record as 294 μm, the Dv90 worked out at 1200 μm and the “Volume below 10 μm” value is given as 30.53%. Further, in data set [1] (Initial), the Dv10 is on record as 0.310 μm, the Dv50 is reported as 1.73 μm, the Dv90 is 57.8 μm and the “Volume below 10 μm” value is given as 79.94%.
